## Experimental logP (octanol/water) values from OPERA 2.9

From the experimental data distributed with OPERA 2.9.

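These are experimental values that the OPERA curators gathered from public databases to train and test their QSAR models. The files give a single number for a compound and property, which may rest on several reports. Method, purity and exact conditions of the single measurements are not given. Where a salt, mixture or single isomer is drawn, the source does not say that exactly this form was tested. Unmarked limits or estimates from the upstream databases cannot be ruled out.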

logP is the log10 of the octanol-water partition coefficient; higher is more lipophilic. "–" marks a cell with nothing listed here. The databases behind each value are named after "via".

{"smiles": "COc1cc(C#N)ccc1O", "name": "4-Hydroxy-3-methoxybenzonitrile", "log Kow": "0.82", "via": "OCHEM"}
{"smiles": "CCCCOC(=O)[C@@H](CC)[C@H](CO)Cc1cncn1C", "log Kow": "1.73", "via": "OCHEM"}
{"smiles": "C[n+]1ccccc1.[I-]", "name": "Pyridinium, 1-methyl-, iodide (1:1)", "log Kow": "-3.3", "via": "OCHEM"}
{"smiles": "Cc1cccc2c1c([N+](=O)[O-])cc[n+]2[O-]", "name": "5-Methyl-4-nitro-1-oxo-1lambda~5~-quinoline", "log Kow": "1.36", "via": "OCHEM"}
{"smiles": "CCCC(Nc1ccc([N+](=O)[O-])cc1[N+](=O)[O-])C(=O)O", "stereo": "racemic", "log Kow": "2.88", "via": "OCHEM"}
{"smiles": "NC(=O)c1ccc[n+]([C@@H]2O[C@H](COP(=O)([O-])OP(=O)(O)OC[C@H]3O[C@@H](n4cnc5c(N)ncnc54)[C@H](O)[C@@H]3O)[C@@H](O)[C@H]2O)c1", "name": "Nadide", "log Kow": "-4", "via": "eChemPortal"}
{"smiles": "COc1ccccc1N1CCN(CCOCc2ccc(F)cc2)CC1", "log Kow": "3.6", "via": "OCHEM"}
{"smiles": "Cc1ccc(O)c([C@H](CCN(C(C)C)C(C)C)c2ccccc2)c1", "name": "(R)-(+)-Tolterodine", "log Kow": "5.6", "via": "PubChem"}
{"smiles": "Cn1c(=O)c(N=Nc2ccc([N+](=O)[O-])cc2)c(O)c2ccccc21", "log Kow": "2.6", "via": "eChemPortal"}
{"smiles": "Nc1cc[n+]([O-])c2ccccc12", "name": "4-Aminoquinoline-1-oxide", "log Kow": "0.05", "via": "OCHEM"}
{"smiles": "C1CCCCCC2OC2CCCC1", "stereo": "stereo not given", "name": "13-Oxabicyclo[10.1.0]tridecane", "log Kow": "4.7", "via": "OCHEM"}
{"smiles": "N#Cc1ccc(Cl)c(Cl)c1", "name": "3,4-Dichlorobenzonitrile", "log Kow": "2.8", "via": "eChemPortal"}
{"smiles": "CSc1nc2nc(Cl)ccc2[nH]1", "name": "5-Chloro-2-(methylthio)-3H-imidazo[4,5-b]pyridine", "log Kow": "2.39", "via": "OCHEM"}
{"smiles": "CCCCCCCCCCCCCCCCO", "name": "1-Hexadecanol", "log Kow": "6.675", "via": "eChemPortal"}
{"smiles": "O=S(=O)([O-])CCCSSCCCS(=O)(=O)[O-].[Na+].[Na+]", "name": "1-Propanesulfonic acid, 3,3'-dithiobis-, sodium salt (1:2)", "log Kow": "-3.68", "via": "eChemPortal"}
{"smiles": "CCC(O)CO", "stereo": "stereo not given", "name": "1,2-Butanediol", "log Kow": "-0.02", "via": "OCHEM, eChemPortal"}
{"smiles": "Cc1nc2c([nH]1)CCN(C(=O)c1ccc(NC(=O)c3ccccc3-c3ccccc3)cc1)c1ccccc1-2", "name": "Conivaptan", "log Kow": "6.3", "via": "PubChem"}
{"smiles": "COCCOCOCCOC", "name": "2,5,7,10-Tetraoxaundecane", "log Kow": "-0.69", "via": "eChemPortal"}
{"smiles": "COc1cc(N)c(Cl)cc1C(=O)N[C@@H]1CCN(CCCOc2ccc(F)cc2)C[C@@H]1OC", "name": "Cisapride", "log Kow": "3.3", "via": "PubChem"}
{"smiles": "C[N+](C)(C)CCOC(=O)C1N=N1.[Br-]", "log Kow": "-3.52", "via": "OCHEM"}
{"smiles": "Clc1cc(-c2c(Cl)c(Cl)cc(Cl)c2Cl)cc(Cl)c1Cl", "name": "2,3,3',4',5,5',6-Heptachlorobiphenyl", "log Kow": "7.52", "via": "OCHEM"}
{"smiles": "N[C@@H](Cc1cc(I)c(O)c(I)c1)C(=O)O", "name": "3,5-Diiodo-L-tyrosine", "log Kow": "0.37", "via": "OCHEM"}
{"smiles": "CN1CN(C)CN(C)C1", "name": "1,3,5-Trimethyl-1,3,5-triazacyclohexane", "log Kow": "0.76", "via": "eChemPortal"}
{"smiles": "O=S(=O)(O)CCNC1CCCCC1", "name": "Ethanesulfonic acid, 2-(cyclohexylamino)-", "log Kow": "-2.2", "via": "eChemPortal"}
{"smiles": "Clc1cc(Cl)c(-c2cc(Cl)c(Cl)cc2Cl)c(Cl)c1", "name": "2,2',4,4',5,6'-Hexachlorobiphenyl", "log Kow": "6.76", "via": "OCHEM"}
{"smiles": "O=C(O)CCCCCCCCCC(=O)O", "name": "Undecanedioic acid", "log Kow": "2.8", "via": "eChemPortal"}

The 3 lowest values of log Kow among the entries above:

| compound | name | log Kow | via |
|---|---|---|---|
| NC(=O)c1ccc[n+]([C@@H]2O[C@H](COP(=O)([O-])OP(=O)(O)OC[C@H]3O[C@@H](n4cnc5c(N)ncnc54)[C@H](O)[C@@H]3O)[C@@H](O)[C@H]2O)c1 | Nadide | -4 | eChemPortal |
| O=S(=O)([O-])CCCSSCCCS(=O)(=O)[O-].[Na+].[Na+] | 1-Propanesulfonic acid, 3,3'-dithiobis-, sodium salt (1:2) | -3.68 | eChemPortal |
| C[N+](C)(C)CCOC(=O)C1N=N1.[Br-] | – | -3.52 | OCHEM |